# scFv variants of Ab-14 (light chain) against a SARS-CoV-2 spike peptide

Target: peptide PDVDLGDISGINAS, taken from heptad repeat 2 (HR2) of SARS-CoV-2 spike.

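Phage display of a naive human antibody library on the peptide gave the parent. These sequences belong to a second round, designed from the earlier measurements on random variants of the parent. Their group label is 14L_GP_Gen (GP: Gaussian process model; Gen: genetic algorithm; a sequence that several methods proposed may carry one label only). AlphaSeq pools MATa yeast showing the antibodies with MATalpha yeast showing the peptide. Pairs that bind mate more often; barcode pairs of the diploids are counted by sequencing. Scores were corrected for input abundance and mapped to Kd with protein pairs of known affinity run in the same pool. There are six technical replicates.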

Parent scFv Ab-14: VH joined to VL by three GGGGS repeats. Changes lie in the light chain CDRs alone.
VH: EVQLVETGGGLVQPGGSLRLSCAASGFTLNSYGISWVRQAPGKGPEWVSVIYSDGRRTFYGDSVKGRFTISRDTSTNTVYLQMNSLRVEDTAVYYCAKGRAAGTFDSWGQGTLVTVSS
VL: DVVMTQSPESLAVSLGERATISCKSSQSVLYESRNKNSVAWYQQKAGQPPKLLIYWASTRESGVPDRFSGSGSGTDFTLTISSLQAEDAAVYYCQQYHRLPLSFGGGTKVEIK

The parent's light chain CDRs are KSSQSVLYESRNKNSVA, WASTRES, QQYHRLPLS; each variant's own CDRs replace them letter for letter.
Affinities are written as log10 Kd with Kd in nM; a lower number is a better binder.
Replicates are averaged; those with no signal do not enter the mean.

CDR-L1,CDR-L2,CDR-L3,"replicates, log10 nM","mean, log10 nM",control signals
KSPQSVPYESRNKNSVA,NASTRES,QQYHRLPLS,0.27 / 0.20 / 0.11 / 0.24 / 0.34 / 0.40,0.26,1/18 (2.39)
KLSQSVLYEERNKNNVA,NASQRES,QQYHRLPLS,0.18 / 0.00 / -0.16 / -0.18 / -0.24 / -0.04,-0.07,2/18 (2.45)
KLSQSWLYESRNKNNVA,EASQRES,QQYHRLPLS,-0.22 / -0.35 / -0.39 / -0.51 / -0.48 / -0.22,-0.36,0/18
KLSQSHGYESRNKNSVA,NASTRES,QQYHRLPLS,0.03 / 0.00 / -0.18 / -0.08 / -0.12 / 0.09,-0.04,0/18
KLEQSVDYESRNKNSVA,NASQRES,QQYHRLPLS,0.12 / 0.30 / 0.15 / 0.99 / 0.20 / 0.61,0.40,0/18
KFSQSVLYEDRNKNSVA,NASQRMS,QQYHRLPLS,-0.34 / -0.38 / -0.49 / -0.68 / -0.38 / -0.37,-0.44,1/18 (2.35)
FLSQSVLYESRNKNSVA,NASTRED,QQYHRLPLS,-0.18 / -0.19 / -0.25 / -0.46 / -0.34 / -0.02,-0.24,2/18 (2.31)
KVEQSVPYESRNKNSVA,NASTRES,QQYHRLPLS,0.91 / 1.87 / 1.27 / 2.03 / 1.07 / 1.67,1.47,0/18
KLSQSVDYESRNKNSVA,NASTRCS,QQYHRLPLS,0.33 / 0.23 / 0.47 / -0.02 / 0.35 / 0.20,0.26,2/18 (3.28)
KLSQSDEYESRNKNSVA,NASTRES,QQYHRLPLS,0.17 / 0.11 / 0.20 / 0.05 / 0.06 / 0.26,0.14,1/18 (3.46)
KLQQSELYESRNKNSVA,EASQRLS,QQYHRLPLS,0.46 / 0.27 / 0.18 / 0.03 / 0.13 / 0.12,0.20,1/18 (4.97)
KLPQSVEYESRNKNSVA,NASQRES,QQYHRLPLS,-0.04 / -0.35 / -0.14 / -0.44 / -0.29 / -0.14,-0.23,0/18
KLSQMWLYESRNKNSVA,NASTRES,QQYHRLPLS,-0.25 / -0.47 / -0.45 / -0.68 / -0.68 / -0.37,-0.48,2/18 (3.04)
KFSQSVLYESRNKNAVA,NASQRES,QQYHRLPLS,0.60 / -0.10 / -0.08 / 0.27 / 0.07 / 0.00,0.12,1/18 (2.57)
KLSQSVLYESRNKNSVA,NASTRMS,QQYHRLPLS,-0.32 / -0.53 / -0.44 / -0.49 / -0.60 / -0.21,-0.43,2/18 (3.15)
KVPQSVLYESRNKNSVA,DASTRES,QQYHRLPLS,-0.63 / -0.45 / -0.55 / -0.62 / -0.59 / -0.27,-0.52,0/18
KMSQSVLYESRNKNSVA,GASTRES,QQYHRLPLS,0.02 / -0.25 / -0.21 / -0.34 / -0.28 / -0.15,-0.20,2/18 (2.91)
KLEQSWLYESRNKNAVA,NASQRES,QQYHRLPLS,-0.26 / -0.31 / -0.32 / -0.28 / -0.27 / -0.13,-0.26,0/18
KVSQSQDYESRNKNSVA,NASTRES,QQYHRLPLS,-0.33 / -0.03 / -0.18 / -0.20 / -0.03 / -0.20,-0.16,0/18
KVSQSVLYEERNKNSVA,QASTRES,QQYHRLPLS,0.34 / 0.12 / 0.12 / -0.45 / -0.16 / -0.37,-0.07,0/18
KFSQSVGYESRNKNSVA,EASTRES,QQYHRLPLS,-0.32 / -0.24 / -0.35 / -0.48 / -0.29 / -0.27,-0.32,0/18
KLQQSQLYESRNKNSVA,NASTRLS,QQYHRLPLS,0.00 / -0.12 / -0.25 / -0.43 / -0.22 / 0.02,-0.17,1/18 (1.82)
KLQQSDLYESRMKNSVA,NASTRES,QQYHRLPLS,0.12 / 0.20 / -0.01 / 0.10 / -0.03 / 0.07,0.07,2/18 (2.85)
KLDQSMLYESRNKNSVA,NASQRES,QQYHRLPLS,0.03 / -0.35 / -0.24 / -0.48 / -0.27 / -0.17,-0.24,1/18 (2.06)
KLSQSWLYESRNKNSVA,NASQREE,QQYHRLPLS,0.49 / 0.19 / 0.53 / 0.24 / 0.37 / 0.54,0.39,1/18 (2.38)
KLQQSQGYESRNKNSVA,NASQRES,QQYHRLPLS,-0.28 / -0.21 / -0.30 / -0.36 / -0.27 / -0.18,-0.27,1/18 (3.20)
KLSMSVLYESRNKNSVA,NASTREQ,QQYHRLPLS,0.33 / 0.26 / 0.24 / 0.28 / 0.37 / 0.44,0.32,1/18 (4.12)
KLPQSTLYESRNKNSVA,NASTREV,QQYHRLPLS,-0.09 / -0.21 / -0.12 / -0.29 / -0.30 / -0.11,-0.19,5/18 (3.09)
KLSQSFLYESRNKNSVA,HASTRCS,QQYHRLPLS,0.56 / 0.54 / 0.39 / -0.04 / 0.26 / 0.50,0.37,1/18 (3.00)
KLSQSVLYESRNKNSVA,EASTREL,QQYHRLPLS,-0.18 / -0.26 / -0.27 / -0.39 / -0.24 / -0.08,-0.24,1/18 (2.74)
KLEQSELYESRNKNSVA,NASTRSS,QQYHRLPLS,0.25 / 0.19 / 0.21 / 0.16 / 0.29 / 0.32,0.24,2/18 (2.50)
ALSQSVLYESRNKNSVA,EASTRES,QQYHRLPLS,0.04 / -0.17 / -0.02 / -0.01 / -0.06 / 0.05,-0.03,2/18 (1.97)
VLSQSVLYESRNKNSVA,NASTRLS,QQYHRLPLS,0.19 / 0.03 / -0.11 / -0.03 / -0.03 / 0.08,0.02,1/18 (3.03)
KLPQSQLYESRNKNSVA,NASTRED,QQYHRLPLS,0.64 / 1.33 / 0.78 / 1.05 / 0.92 / 1.18,0.98,0/18
KFSQSYLYESRNSNSVA,NASTRES,QQYHRLPLS,0.22 / -0.35 / -0.26 / -0.31 / -0.18 / -0.20,-0.18,0/18
KLSQSWEYESRNKNSVA,NASQRES,QQYHRLPLS,-0.19 / -0.09 / -0.21 / -0.31 / -0.35 / 0.09,-0.18,2/18 (2.38)
KLSQSVLYESRNKNSVA,DGSTRES,QQYHRLPLS,0.03 / 0.16 / 0.84 / 0.37 / 0.58 / 1.17,0.52,0/18
KLPQSPLYESRNKNSVA,NASTRES,QQYHRLPLS,-0.05 / -0.15 / -0.12 / -0.18 / -0.26 / -0.05,-0.13,2/18 (3.55)
KVSQSVLYESRNKNAVA,HASTRES,QQYHRLPLS,0.63 / 0.16 / 0.08 / 0.19 / 0.25 / 0.38,0.28,2/18 (2.19)
KVSQSQLYESRNKNSVA,NASTRED,QQYHRLPLS,0.05 / -0.46 / -0.13 / -0.05 / -0.11 / 0.07,-0.11,0/18
KLEQSTLYESRNKNSVA,NASQRES,QQYHRLPLS,-0.43 / -0.38 / -0.25 / -0.80 / -0.22 / -0.32,-0.40,0/18
KLSQSVLYESRMKNSVA,GASTRES,QQYHRLPLS,0.05 / -0.20 / -0.30 / -0.32 / -0.26 / -0.25,-0.21,0/18
KVSQSELYESRNKNSVA,EASTRMS,QQYHRLPLS,-0.03 / 0.23 / -0.17 / -0.22 / -0.24 / 0.01,-0.07,2/18 (3.58)
KLSQSELYESRNCNSVA,NASQRES,QQYHRLPLS,0.52 / 0.41 / 0.51 / 0.24 / 0.66 / 0.53,0.48,2/18 (3.03)
KVSQSWLYESRNKNSVA,NASQRES,QQYHRLPLS,-0.09 / -0.16 / -0.28 / -0.38 / -0.25 / -0.17,-0.22,0/18
KLSQSVLYESRNKNSVA,EASTRES,QAYHRLPLS,0.44 / 0.03 / 0.26 / -0.04 / 0.17 / 0.26,0.19,3/18 (2.50)
KLQQSVLYESRNKNSVA,EASQRLS,QQYHRLPLS,0.09 / -0.22 / -0.24 / -0.25 / -0.16 / 0.14,-0.11,1/18 (3.18)
KFSQSVLYEDRNKNSVA,NASQRES,QQYHRLPLS,-0.07 / -0.15 / -0.18 / -0.52 / -0.31 / -0.27,-0.25,1/18 (2.12)
KLSQSYLYEQRNKNSVA,NASTRES,QQYHRLPLS,-0.02 / -0.19 / -0.22 / -0.39 / -0.34 / 0.06,-0.18,1/18 (2.44)
KLDQSVLYESRNKNSVA,NASTRMS,QQYHRLPLS,-0.11 / -0.10 / -0.17 / -0.12 / -0.07 / -0.12,-0.12,2/18 (3.31)
KLSQSNGYESRNKNSVA,NASTRES,QQYHRLPLS,-0.09 / -0.36 / -0.46 / -0.46 / -0.49 / -0.33,-0.37,1/18 (2.07)

Excerpt, the first 6 entries:

CDR-L1,CDR-L2,CDR-L3,"replicates, log10 nM","mean, log10 nM",control signals
KSPQSVPYESRNKNSVA,NASTRES,QQYHRLPLS,0.27 / 0.20 / 0.11 / 0.24 / 0.34 / 0.40,0.26,1/18 (2.39)
KLSQSVLYEERNKNNVA,NASQRES,QQYHRLPLS,0.18 / 0.00 / -0.16 / -0.18 / -0.24 / -0.04,-0.07,2/18 (2.45)
KLSQSWLYESRNKNNVA,EASQRES,QQYHRLPLS,-0.22 / -0.35 / -0.39 / -0.51 / -0.48 / -0.22,-0.36,0/18
KLSQSHGYESRNKNSVA,NASTRES,QQYHRLPLS,0.03 / 0.00 / -0.18 / -0.08 / -0.12 / 0.09,-0.04,0/18
KLEQSVDYESRNKNSVA,NASQRES,QQYHRLPLS,0.12 / 0.30 / 0.15 / 0.99 / 0.20 / 0.61,0.40,0/18
KFSQSVLYEDRNKNSVA,NASQRMS,QQYHRLPLS,-0.34 / -0.38 / -0.49 / -0.68 / -0.38 / -0.37,-0.44,1/18 (2.35)

Empty control strains, which show no peptide, gave a signal in 4% of pairings with all light chain designs; the median was 2.64 and 95% of these signals were weaker than 1.59. No background was subtracted. Also given: how often the same scFv was detected with the empty control strains, with their mean in brackets.
In the paper, a design with two or fewer of six values counts as a poor binder.
A sequence measured in both rounds can read differently, since the two assays cover different ranges.

Reference: Li et al. 2023, doi:10.1038/s41467-023-39022-2. File: FLAb, binding data.